Test results as given in PMC7986981 (ACS Pharmacology & Translational Science, 2021).

Biological target: SARS-CoV-2 3CL-Pro (Severe acute respiratory syndrome coronavirus 2, UniProt P0DTD1)
Assay: biochemical
Conditions: HP 3CL-Pro IC50 (μM)

NC(CO)C(=O)NNCc1ccc(O)c(O)c1O (stereo not shown) [Benserazide hdrochloride]
IC50: 0.1 µM
